From ChEMBL document CHEMBL5725686, “G protein-coupled receptor kinase 2 inhibitors and methods for use of the same” (2018)
pIC50: −log10 of the molar value.

By UniProt entry, the sequences of proteins in these tests, tags left out.
UniProt P34947, whole entry: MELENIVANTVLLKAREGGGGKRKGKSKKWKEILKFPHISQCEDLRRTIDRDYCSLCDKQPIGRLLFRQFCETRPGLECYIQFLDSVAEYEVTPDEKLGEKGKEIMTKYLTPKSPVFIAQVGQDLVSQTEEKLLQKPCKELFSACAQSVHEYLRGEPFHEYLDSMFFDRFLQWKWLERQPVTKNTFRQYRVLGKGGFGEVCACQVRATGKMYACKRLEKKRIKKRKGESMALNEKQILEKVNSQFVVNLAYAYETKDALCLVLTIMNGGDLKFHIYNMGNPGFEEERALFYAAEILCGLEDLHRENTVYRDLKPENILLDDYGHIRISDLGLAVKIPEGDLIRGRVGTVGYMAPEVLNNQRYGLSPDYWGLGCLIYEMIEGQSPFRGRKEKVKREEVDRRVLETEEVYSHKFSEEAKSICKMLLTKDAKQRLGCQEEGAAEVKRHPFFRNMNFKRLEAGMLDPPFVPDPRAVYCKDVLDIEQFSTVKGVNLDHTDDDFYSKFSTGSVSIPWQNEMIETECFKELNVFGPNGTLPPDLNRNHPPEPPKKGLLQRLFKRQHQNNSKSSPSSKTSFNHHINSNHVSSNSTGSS

Target: G protein-coupled receptor kinase 5 (Homo sapiens, UniProt P34947)
Assay: Assays for Inhibition of GRKs: GRK1, 2 and 5 kinetic assays were conducted in a buffer containing 20 mM HEPES pH 7.0, 5 μM ATP, 2 mM MgCl2, and […] DDM with 50 nM GRK and either 500 nM bROS or 500 nM soluble substrate tubulin in 5 min reactions. The low salt concentration and DDM were used to maximize GRK activity and disrupt small molecule aggregates from forming, respectively. Reactions were

pIC50: 5.62
SMILES: COc1ccccc1C(C)NC(=O)c1cc(C2NC(=O)NC(C)=C2C(=O)Nc2ccc3[nH]ncc3c2)ccc1F (stereo unspecified)
